Values of other authors, collected in patent US20140330223A1.
Only a part of the results on these compounds is given; other tests are left out.

Settings: Roy et al., J Pharm Sci 85(5), 1996, 491-495

**Q.** For CCC(=O)N(c1ccccc1)C1CCN(CCc2ccccc2)CC1, which “concentration of fentanyl in the polyisobutylene matrix at which active ingredient is precipitating” value is on record?
**A.** Its value is “more than 4%”.
